One experiment concerns the target Aurora-A (Homo sapiens (Human), UniProt O14965). As to conditions: read-out: Aurora-A IC50; biochemical assay.
Experiment [1] concerns MOLM-13 human FLT3-ITD positive AML cell line. Put plainly: Cell viability assay, MOLM-13. In kind it is cell-based. The note with it: MOLM-13 FLT3-ITD positive AML cells.
Experiment [2] concerns MV4-11 human FLT3-ITD positive AML cell line. Nature of the experiment: Cell viability assay, MV4-11. It counts as cell-based. As to conditions: MV4-11 FLT3-ITD positive AML cells.
The target in another experiment is CYP2C19 (Homo sapiens (Human), UniProt P33261). Nature of the experiment: Inhibition of CYP isozymes in human liver microsomes, CYP2C19.

The chains behind the UniProt entries cited, without tags or fusion partners. Where a name states a change or a piece, a line headed by the entry shows the natural chain unless it says otherwise.
UniProt O14965: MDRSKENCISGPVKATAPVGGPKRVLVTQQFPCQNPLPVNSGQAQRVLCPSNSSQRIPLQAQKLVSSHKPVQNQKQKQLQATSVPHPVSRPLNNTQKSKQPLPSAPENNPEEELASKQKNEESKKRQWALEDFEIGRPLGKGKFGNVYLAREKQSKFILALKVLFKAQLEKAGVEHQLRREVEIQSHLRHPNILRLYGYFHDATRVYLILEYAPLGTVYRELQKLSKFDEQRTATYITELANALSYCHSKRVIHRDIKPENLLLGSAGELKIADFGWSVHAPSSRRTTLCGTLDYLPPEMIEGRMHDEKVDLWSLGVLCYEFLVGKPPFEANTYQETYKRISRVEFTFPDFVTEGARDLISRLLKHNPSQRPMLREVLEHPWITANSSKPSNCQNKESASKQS
UniProt P33261, whole entry: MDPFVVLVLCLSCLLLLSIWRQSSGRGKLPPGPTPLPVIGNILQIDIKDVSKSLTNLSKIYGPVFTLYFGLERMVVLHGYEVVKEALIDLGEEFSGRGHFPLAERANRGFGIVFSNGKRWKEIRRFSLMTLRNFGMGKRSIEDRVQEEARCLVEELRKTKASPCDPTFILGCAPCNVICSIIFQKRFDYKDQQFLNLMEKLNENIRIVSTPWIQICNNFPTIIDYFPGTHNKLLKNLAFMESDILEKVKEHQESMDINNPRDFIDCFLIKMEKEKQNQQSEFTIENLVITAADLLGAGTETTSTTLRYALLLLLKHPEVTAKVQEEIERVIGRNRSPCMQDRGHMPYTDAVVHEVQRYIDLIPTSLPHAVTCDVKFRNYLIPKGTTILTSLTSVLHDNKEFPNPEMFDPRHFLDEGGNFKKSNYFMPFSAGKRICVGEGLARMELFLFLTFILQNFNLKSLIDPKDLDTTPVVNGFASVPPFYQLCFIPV

pIC50: −log10 of the molar value.

One may read the pIC50 as the IC50 on a negative log10 scale, so that one unit is a factor of ten. Broadly, the GI50 is the concentration at which growth is held to half of that of the control. A higher GI50 goes with lower sensitivity of the cells.

Take `Cc1nc(CN2CCN(c3c(Cl)cnc4[nH]c(-c5cn(C)nc5C)nc34)CC2)no1` [Example 3, 3-((4-(6-Chloro-2-(1,3-dimethyl-1H-pyrazol-4-yl)-3H-imidazo[4,5-b]pyridin-7-yl)piperazin-1-yl)methyl)-5-methyl-1,2,4-oxadiazole]: at Aurora-A, the pIC50 is 7.28.

`Cc1nn(C)cc1-c1nc2c(N3CCN(Cc4ccc(Cl)cc4)CC3)c(Cl)cnc2[nH]1` [Example 1, 6-Chloro-7-(4-(4-chlorobenzyl)piperazin-1-yl)-2-(1,3-dimethyl-1H-pyrazol-4-yl)-3H-imidazo[4,5-b]pyridine]: the GI50 in experiment [1] amounted to 104 nM; in experiment [2], 291 nM. Moreover, the pIC50 against CYP2C19 was 4.30 to 5.00.

The values above are taken from patent US9447092B2, “Pharmaceutically active compounds” (CANCER RESEARCH TECHNOLOGY LIMITED, priority 2012, dated 2016).
